Data: US20250361280A1 (Protagonist Therapeutics, Inc., priority 2022, published 2025)

Columns and labels:
ferroportin [1] = target: T1, ferroportin (Homo sapiens, UniProt Q9NP59); test: FPN internalization assay (FPN activity assay), loss of ferroportin-GFP fluorescence; assay type: cell-based
T1 sequence (Q9NP59 1-571): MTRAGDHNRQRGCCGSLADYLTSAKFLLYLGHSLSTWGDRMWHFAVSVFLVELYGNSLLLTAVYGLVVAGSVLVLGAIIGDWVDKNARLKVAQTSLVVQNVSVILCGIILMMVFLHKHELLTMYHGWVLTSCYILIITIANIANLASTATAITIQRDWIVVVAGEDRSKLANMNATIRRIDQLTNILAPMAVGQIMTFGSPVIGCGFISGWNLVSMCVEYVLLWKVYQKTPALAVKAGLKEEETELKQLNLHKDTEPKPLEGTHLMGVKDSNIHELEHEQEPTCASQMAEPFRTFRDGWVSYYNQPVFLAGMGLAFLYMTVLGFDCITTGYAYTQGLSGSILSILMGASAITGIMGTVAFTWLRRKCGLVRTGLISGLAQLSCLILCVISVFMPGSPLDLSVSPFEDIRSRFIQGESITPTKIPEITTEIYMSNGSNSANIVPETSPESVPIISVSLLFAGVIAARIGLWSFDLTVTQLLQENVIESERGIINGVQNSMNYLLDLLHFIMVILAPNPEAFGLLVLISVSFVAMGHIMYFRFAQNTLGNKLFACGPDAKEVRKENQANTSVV

ferroportin [2] = target: T1, ferroportin; test: T47D internalization assay in presence of mouse serum albumin; assay type: cell-based; set-up: a human breast carcinoma adherent cell line which endogenously expresses ferroportin; host or cells: T47D; settings: T47D cells, 0.5% mouse serum albumin, 1 hr incubation
In short: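 T47D cells exposed 1 h to 10-point peptide dilutions (top ~5 μM) preincubated 30 min with 0.5% mouse serum albumin. Then 200 nM AF647-labelled ferroportin-binding detection peptide for 2 h. Flow cytometry MFI of live singlets, IC50 by 4-parameter fit.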

[3] = Table 1D, HEK293 cells stably expressing ferroportin-GFP, compound at least 18 hours, read-out: IC50: FPN
[4] = Table 1D, read-out: IC50: T47D MSA
[5] = Table 1C, HEK293 cells stably expressing ferroportin-GFP, compound at least 18 hours, read-out: IC50: FPN
[6] = Table 1C, read-out: IC50: T47D MSA

| SMILES | IC50 (ferroportin [1]; [3]) [nM] | IC50 (ferroportin [2]; [4]) [nM] | further results |
| --- | --- | --- | --- |
| CC(C)CC(=O)N[C@@H](CCC(=O)O)C(=O)N[C@H](C(=O)N[C@@H](Cc1c[nH]cn1)C(=O)N[C@H](C(=O)N1CCC[C@H]1C(=O)Nc1ccc(C(=O)N(C)[C@@H](CCCCNC(=O)COCCOCCNC(=O)COCCOCCNC(=O)[C@H](CN)NC(=O)CCCCCCCCCCCCCCCCC(=O)O)C(=O)N[C@@H](Cc2ccc(-c3ccccc3)cc2)C(=O)N[C@H](CCCCN)C(N)=O)cc1)C(c1ccccc1)c1ccccc1)[C@@H](C)O [compound 38] |  |  | IC50 (ferroportin [1]): 1 to 30 nM; IC50 (ferroportin [2]; IC50: T47D MSA, Table 1C): 10 to 100 nM |
| CCCCCCCCCCCCCCCC(=O)NCCCCCC(=O)NCCCC[C@@H]1NC(=O)[C@@H]2CCCN2C(=O)[C@H](C(c2ccccc2)c2ccccc2)NC(=O)[C@H](Cc2c[nH]cn2)NC(=O)[C@H]([C@@H](C)O)NC(=O)[C@@H](NC(=O)CC(C)C)CCC(=O)NCCOc2ccc(cc2)C[C@@H](C(N)=O)NC1=O [compound 30] |  |  | IC50 (ferroportin [1]; [5]): 30 to 100 nM; IC50 (ferroportin [2]; [6]): 10 to 100 nM |
| CCCCCCCCCCCCCCCC(=O)NCC[N+](C)(C)CC(=O)NCCOCCOCC(=O)NCCOCCOCC(=O)NCCCC[C@H](NC(=O)[C@@H]1C[C@@H]2CN1C(=O)[C@H](C(c1ccccc1)c1ccccc1)NC(=O)[C@H](Cc1c[nH]cn1)NC(=O)[C@@H](NC(=O)[C@H](CCC(=O)O)NC(=O)CC(C)C)CC(=O)N2)C(=O)NCCCCc1ccccc1 [compound 191] | 30 to 100 | 100 to 500 |  |
| COC(=O)CC[C@H](NC(=O)CC(C)C)C(=O)N[C@H](C(=O)N[C@@H](Cc1c[nH]cn1)C(=O)N[C@H](C(=O)N1CCC[C@H]1C(=O)N(C)[C@@H](CCCCNC(=O)CCCCCNC(=O)C[N+](C)(C)CCNC(=O)CCCCCCCCCCCCCCCCC(=O)O)C(=O)N[C@H](C(=O)N[C@H](CCCCN)C(N)=O)C(c1ccccc1)c1ccccc1)C(c1ccccc1)c1ccccc1)[C@@H](C)O [compound 39] |  |  | IC50 (ferroportin [1]; [5]): > 500 nM; IC50 (ferroportin [2]; [6]): > 500 nM |
| CCCCCCCCCCCCCCCC(=O)NCC[N+](C)(C)CC(=O)NCCCCCC(=O)NCCCC[C@H](NC(=O)[C@@H]1CCCN1C(=O)[C@@H](NC(=O)[C@H](Cc1c[nH]cn1)NC(=O)[C@@H](NC(=O)[C@H](CCC(=O)O)NC(=O)CC(C)C)[C@@H](C)O)C(c1ccccc1)c1ccccc1)C(=O)NCC(c1ccccc1)c1ccccc1 [compound 25] |  |  | IC50 (ferroportin [1]; [5]): 1 to 30 nM; IC50 (ferroportin [2]; [6]): 10 to 100 nM |
| COC(=O)CCC(CCCC(C)C)C(=O)N1C[C@@H]2C[C@H]1C(=O)N[C@@H](Cc1c[nH]cn1)C(=O)N[C@@H](C(c1ccccc1)c1ccccc1)C(=O)N1C[C@@H](C[C@H]1C(=O)N(C)[C@@H](CCCCN)C(=O)NCCCCc1ccccc1)SS2 (stereo partly drawn) [compound 170] | > 500 | > 500 |  |
| CCCCCCCCCCCCCCCC(=O)NCC[N+](C)(C)CC(=O)NCCOCCOCC(=O)NCCOCCOCC(=O)NCCCC[C@H](NC(=O)[C@@H]1CCCN1C(=O)[C@@H](NC(=O)[C@H](Cc1c[nH]cn1)NC(=O)[C@@H](NC(=O)[C@H](CCC(=O)O)NC(=O)CC(C)C)[C@@H](C)O)C(c1ccccc1)c1ccccc1)C(=O)NCCc1ccncc1 [compound 72] |  |  | IC50 (ferroportin [1]): 1 to 30 nM; IC50 (ferroportin [2]; IC50: T47D MSA (nM, Table 1D)): 0.1 to 10 nM |
| CC(C)CC(=O)N[C@@H](CCC(=O)O)C(=O)N[C@H](C(=O)N[C@@H](Cc1c[nH]cn1)C(=O)N[C@H](C(=O)N1CCC[C@H]1C(=O)N[C@H](CCCCN)C(=O)N(CC1CC1)C(CC(C)C)C(N)=O)C(c1ccccc1)c1ccccc1)[C@@H](C)O (stereo partly drawn) [compound 151] | 1 to 30 | 100 to 500 |  |
| CCCCCCCCCCCCCCCC(=O)N[C@@H](CN)C(=O)NCCOCCOCC(=O)NCCOCCOCC(=O)NCCCC[C@H](NC(=O)[C@@H]1CSSC[C@H](NC(=O)[C@H](CCC(=O)O)NC(=O)CC(C)C)C(=O)N[C@@H](Cc2c[nH]cn2)C(=O)N[C@@H](C(c2ccccc2)c2ccccc2)C(=O)N1)C(=O)NCCCCc1ccccc1 [compound 198] | 30 to 100 | 0.1 to 10 |  |
| CCCCCCCCCCCCCCCC(=O)NCC[N+](C)(C)CC(=O)NCCOCCOCC(=O)NCCOCCOCC(=O)NCCCC[C@H](NC(=O)[C@@H]1CCCN1C(=O)[C@@H](NC(=O)[C@H](Cc1c[nH]cn1)NC(=O)[C@@H](NC(=O)[C@H](CCC(=O)O)NC(=O)CC(C)C)[C@@H](C)O)C(c1ccccc1)c1ccccc1)C(=O)NCCc1nc2ccccc2[nH]1 [compound 123] |  |  | IC50 (ferroportin [1]): 1 to 30 nM; IC50 (ferroportin [2]; IC50: T47D MSA (nM, Table 1D)): 0.1 to 10 nM |
| CCCCCCCCCCCCCCCC(=O)NCC[N+](C)(C)CC(=O)NCCOCCOCC(=O)NCCOCCOCC(=O)NCCCC[C@H](NC(=O)[C@@H]1CCCN1C(=O)[C@@H](NC(=O)[C@H](Cc1c[nH]cn1)NC(=O)[C@@H](NC(=O)[C@H](CCC(=O)O)NC(=O)CC(C)C)[C@@H](C)O)C(c1ccccc1)c1ccccc1)C(=O)N[C@@H](Cc1ccccc1)C(=O)NCCCCC [compound 182] | 1 to 30 | 0.1 to 10 |  |
| CC(C)CC(=O)N[C@@H](CCC(=O)O)C(=O)N[C@H](C(=O)N[C@@H](Cc1c[nH]cn1)C(=O)N[C@H](C(=O)N1CCC[C@H]1C(=O)N[C@@H](CCCCNC(=O)COCCOCCNC(=O)COCCOCCNC(=O)[C@H](CN)NC(=O)CCCc1ccc(I)cc1)C(=O)NCCCCc1ccccc1)C(c1ccccc1)c1ccccc1)[C@@H](C)O [compound 129] | 1 to 30 | 10 to 100 |  |
| CC(C)CC(=O)N[C@@H](CCC(=O)O)C(=O)N[C@H](C(=O)N[C@@H](Cc1c[nH]cn1)C(=O)N[C@H](C(=O)N1CCC[C@H]1C(=O)N[C@H](CCCCN)C(=O)N(CCC(=O)O)C(CC(C)C)C(N)=O)C(c1ccccc1)c1ccccc1)[C@@H](C)O (stereo partly drawn) [compound 139] | > 500 | > 500 |  |
| CCCCCCCCCCCCCCCC(=O)NCCCCCC(=O)NCCCC[C@H](NC(=O)[C@@H]1CCCN1C(=O)[C@@H](NC(=O)[C@H](Cc1c[nH]cn1)NC(=O)[C@@H](NC(=O)[C@H](CCC(=O)O)NC(=O)CC(C)C)[C@@H](C)O)C(c1ccccc1)c1ccccc1)C(=O)N[C@H](C(N)=O)C(c1ccccc1)c1ccccc1 [compound 36] |  |  | IC50 (ferroportin [1]; [5]): 1 to 30 nM; IC50 (ferroportin [2]; [6]): 10 to 100 nM |

Now from value to compound, other results behind:

| IC50 (ferroportin [1]; [3]) [nM] | IC50 (ferroportin [2]; [4]) [nM] | SMILES | further results |
| --- | --- | --- | --- |
| 1 to 30 | 0.1 to 10 | CCCCCCCCCCCCCCCC(=O)N[C@@H](CN)C(=O)NCCOCCOCC(=O)NCCOCCOCC(=O)NCCCC[C@H](NC(=O)[C@@H]1CCCN1C(=O)[C@@H](NC(=O)[C@H](Cc1c[nH]cn1)NC(=O)[C@@H](NC(=O)[C@H](CCC(=O)O)NC(=O)CC(C)C)[C@@H](C)O)C(c1ccccc1)c1ccccc1)C(=O)NCCCCc1ccccc1 [compound 203] |  |
| 1 to 30 | 10 to 100 | CCCCCCCCCCCCCCCC(=O)NCC[N+](C)(C)CC(=O)NCCCC[C@H](NC(=O)[C@@H]1CCCN1C(=O)[C@@H](NC(=O)[C@H](Cc1c[nH]cn1)NC(=O)[C@@H](NC(=O)[C@H](CCC(=O)O)NC(=O)CC(C)C)[C@@H](C)O)C(c1ccccc1)c1ccccc1)C(=O)NCCCCc1ccccc1 [compound 218] |  |
| 30 to 100 | 10 to 100 | CC(C)CC(=O)N[C@H]1CCC(=O)NCCCC[C@H](C(N)=O)NC(=O)[C@H](C(c2ccccc2)c2ccccc2)NC(=O)[C@H](CCCCNC(=O)[C@H](CN)NC(=O)CCCc2ccc(I)cc2)N(C)C(=O)[C@H](C2CCCCC2)NC(=O)[C@@H]2CCCN2C(=O)[C@H](C(c2ccccc2)c2ccccc2)NC(=O)[C@H](Cc2c[nH]cn2)NC(=O)[C@H]([C@@H](C)O)NC1=O [compound 80] |  |
| 1 to 30 | 0.1 to 10 | CCCCCCCCCCCCCCCC(=O)NCC[N+](C)(C)CC(=O)NCCOCCOCC(=O)NCCOCCOCC(=O)NCCCC[C@@H](C(=O)NCCCCCc1ccccc1)N(C)C(=O)[C@@H]1CCCN1C(=O)[C@@H](NC(=O)[C@H](Cc1c[nH]cn1)NC(=O)[C@@H](NC(=O)[C@H](CCC(=O)O)NC(=O)CC(C)C)[C@@H](C)O)C(c1ccccc1)c1ccccc1 [compound 112] |  |
| 30 to 100 | > 500 | CC(C)CC(=O)N[C@H]1CCC(=O)NCCCC[C@H](C(N)=O)NC(=O)[C@H](C(c2ccccc2)c2ccccc2)NC(=O)[C@H](CCCCNC(=O)CCCc2ccc(I)cc2)N(C)C(=O)[C@H](C2CCCCC2)NC(=O)[C@@H]2CSSC[C@H](NC1=O)C(=O)N[C@@H](Cc1c[nH]cn1)C(=O)N[C@@H](C(c1ccccc1)c1ccccc1)C(=O)N2 [compound 76] |  |
| 1 to 30 | 10 to 100 | CC(C)CC(=O)N[C@@H](CCC(=O)O)C(=O)N[C@H](C(=O)N[C@@H](Cc1c[nH]cn1)C(=O)N[C@H](C(=O)N1CCC[C@H]1C(=O)N[C@@H](CCCCNC(=O)COCCOCCNC(=O)COCCOCCNC(=O)[C@H](CN)NC(=O)CCCCCCCCCCC(=O)O)C(=O)NCCCCCc1ccccc1)C(c1ccccc1)c1ccccc1)[C@@H](C)O [compound 96] |  |
| 100 to 500 | > 500 | CC(C)CC(=O)N[C@H]1CCC(=O)N(Cc2ccccc2)CCNC(=O)[C@H](CCCCNC(=O)CCOCCOCCOCCOCCNC(=O)CCCc2ccc(I)cc2)NC(=O)[C@@H]2CSSC[C@H](NC1=O)C(=O)N[C@@H](Cc1c[nH]cn1)C(=O)N[C@@H](C(c1ccccc1)c1ccccc1)C(=O)N2 [compound 61] |  |
